Earlier results as cited in US10450593B2, “Type II fatty acid synthesis enzymes in reverse β-oxidation” (William Marsh Rice University, priority 2014, dated 2019).

Biological target: T1, FabI (Escherichia coli, UniProt P0AEK4)
T1 sequence (P0AEK4 1-262): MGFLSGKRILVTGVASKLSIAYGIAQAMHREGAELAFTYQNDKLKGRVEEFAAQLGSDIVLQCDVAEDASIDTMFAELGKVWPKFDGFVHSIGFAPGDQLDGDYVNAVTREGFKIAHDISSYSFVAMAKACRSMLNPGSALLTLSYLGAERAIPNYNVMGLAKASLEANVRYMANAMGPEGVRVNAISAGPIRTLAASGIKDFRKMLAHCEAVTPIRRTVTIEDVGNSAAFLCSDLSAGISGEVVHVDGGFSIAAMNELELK
Details: literature, Helmut Bergler 1996; read-out: Ki towards FabI; cited from earlier work

## palmitoyl-ACP
  Ki: 5.4 µM
